As usually defined, the Km is the substrate concentration at which the rate is half of its maximum.

The target in the assay is T1, PTP1B (Homo sapiens, UniProt P18031).
T1 construct: gene PTPN1
T1 sequence (P18031 1-435): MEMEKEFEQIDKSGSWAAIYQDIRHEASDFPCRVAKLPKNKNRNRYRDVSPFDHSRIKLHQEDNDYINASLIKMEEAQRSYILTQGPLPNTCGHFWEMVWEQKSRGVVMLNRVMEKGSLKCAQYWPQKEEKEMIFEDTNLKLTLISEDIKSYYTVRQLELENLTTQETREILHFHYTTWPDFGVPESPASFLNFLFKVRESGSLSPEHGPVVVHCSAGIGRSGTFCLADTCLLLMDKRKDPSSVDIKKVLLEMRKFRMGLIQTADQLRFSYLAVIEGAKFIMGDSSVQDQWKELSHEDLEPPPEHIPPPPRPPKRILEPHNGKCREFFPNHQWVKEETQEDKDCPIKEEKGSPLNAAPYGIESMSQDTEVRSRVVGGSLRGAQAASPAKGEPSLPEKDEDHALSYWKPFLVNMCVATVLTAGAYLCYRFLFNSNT
Kind of assay: continuous fluorescence phosphatase assay, Michaelis-Menten fit. The settings on record: similar assay setup as for NMA1982 (Bis-Tris pH 6.0, room temperature). The format is biochemical.

As for `Cc1cc(=O)oc2c(F)c(OP(=O)(O)O)c(F)cc12` [DiFMUP], the Km was determined as 4 µM.

These data come from publication PMC10491346, “Enzyme Mechanistic Studies of NMA1982, a Protein Tyrosine Phosphatase and Potential Virulence Factor in Neisseria meningitidis” (Research Square, 2023).
